# Laboratory results as given in patent EP0552386A1, “2-Amino-3 or 6-methoxycyclohexyl amide derivatives” (dated 1993).
# By UniProt entry, the sequences of proteins in these tests, tags left out. Where a name states a change or a piece, a line headed by the entry shows the natural chain unless it says otherwise.
# UniProt P41144: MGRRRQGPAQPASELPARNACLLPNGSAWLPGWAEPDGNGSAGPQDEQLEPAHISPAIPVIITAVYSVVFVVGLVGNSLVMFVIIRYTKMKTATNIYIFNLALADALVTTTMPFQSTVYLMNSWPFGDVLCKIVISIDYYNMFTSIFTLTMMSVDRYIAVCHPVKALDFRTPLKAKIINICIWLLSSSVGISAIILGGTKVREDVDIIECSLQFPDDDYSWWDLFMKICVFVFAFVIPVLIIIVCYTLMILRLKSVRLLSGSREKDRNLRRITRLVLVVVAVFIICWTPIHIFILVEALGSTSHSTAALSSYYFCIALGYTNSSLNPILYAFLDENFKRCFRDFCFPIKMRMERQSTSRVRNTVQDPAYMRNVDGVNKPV
# Molecular target: kappa opioid receptor (Cavia porcellus, UniProt P41144)
# Test: kappa opioid receptor binding, tritiated etorphine, brain homogenates
# Settings: in vitro receptor binding assay; result in words
smiles,measurement,value
CO[C@@H]1CCC[C@@H](N2CCCC2)[C@@H]1N(C)C(=O)Cc1cccc2occc12 (racemic),selectivity for the kappa versus mu opioid receptor,particularly high selectivity
